# Assay results reported in US10308689B2, “Dengue virus (DV) polypeptide sequences, T cell epitopes and methods and uses thereof” (LA JOLLA INSTITUTE FOR ALLERGY AND IMMUNOLOGY, priority 2010, dated 2019).
# Tested on: PBMC of healthy adult blood donors from Colombo, Sri Lanka
# Experiment: Ex vivo IFNγ ELISPOT, HLA-matched PBMC of Sri Lankan blood donors
# Format: cell-based, human
# [1] = ex vivo IFNγ ELISPOT, donors expressing HLA B*3501 (supertype B7)
# [2] = ex vivo IFNγ ELISPOT, donors expressing B*0702
# [3] = ex vivo IFNγ ELISPOT, donors expressing HLA A*0201 (supertype A2)
# [4] = ex vivo IFNγ ELISPOT, donors expressing HLA B*5801 (supertype B58)
# [5] = ex vivo IFNγ ELISPOT, donors expressing HLA B*0702 (supertype B7)
# [6] = ex vivo IFNγ ELISPOT, donors expressing B*5801
# [7] = ex vivo IFNγ ELISPOT, donors expressing HLA B*4001 (supertype B44)
compound,measurement,setting,value
CC[C@H](C)[C@H](NC(=O)[C@H](CC(=O)O)NC(=O)[C@H](CC(=O)O)NC(=O)[C@H](CCC(=O)O)NC(=O)[C@@H](NC(=O)[C@H](CCC(=O)O)NC(=O)[C@@H]1CCCN1C(=O)[C@@H](N)CC(N)=O)[C@@H](C)CC)C(=O)N[C@@H](Cc1ccccc1)C(=O)O,T cell response [SFC],[1],110 SFC
CC(C)C[C@H](NC(=O)[C@H](CCCNC(=N)N)NC(=O)[C@@H]1CCCN1C(=O)[C@@H](N)CCCCN)C(=O)N[C@@H](CS)C(=O)N[C@H](C(=O)N[C@@H](CCCNC(=N)N)C(=O)N[C@@H](CCC(=O)O)C(=O)N[C@@H](CCC(=O)O)C(=O)N[C@@H](Cc1ccccc1)C(=O)O)[C@@H](C)O,T cell response [SFC],[2],48 SFC
CSCC[C@H](NC(=O)[C@H](C)NC(=O)[C@H](CCSC)NC(=O)[C@H](CC(C)C)NC(=O)[C@@H](N)[C@@H](C)O)C(=O)N[C@@H](CC(=O)O)C(=O)N[C@@H](CC(C)C)C(=O)NCC(=O)N[C@@H](CCC(=O)O)C(=O)N[C@@H](CC(C)C)C(=O)O,T cell response [SFC],[3],67 SFC
CC[C@H](C)[C@H](NC(=O)[C@@H]1CCCN1C(=O)CNC(=O)[C@@H](NC(=O)[C@H](C)N)[C@@H](C)O)C(=O)N[C@H](C(=O)N[C@H](C(=O)N[C@@H](CC(C)C)C(=O)N[C@@H](Cc1c[nH]c2ccccc12)C(=O)O)[C@@H](C)O)[C@@H](C)O,T cell response [SFC],[4],110 SFC
CC(C)C[C@H](NC(=O)CNC(=O)[C@H](C)NC(=O)CNC(=O)[C@H](C)NC(=O)[C@H](CC(C)C)NC(=O)[C@@H](N)Cc1ccc(O)cc1)C(=O)N[C@@H](C)C(=O)N[C@@H](Cc1ccccc1)C(=O)O,T cell response [SFC],[5],72 SFC
CC(C)C[C@H](N)C(=O)N[C@@H](Cc1c[nH]c2ccccc12)C(=O)N[C@@H](CCC(=O)O)C(=O)NCC(=O)N[C@@H](CO)C(=O)N1CCC[C@H]1C(=O)NCC(=O)N[C@@H](CCCCN)C(=O)N[C@@H](Cc1ccccc1)C(=O)O,T cell response [SFC],"ex vivo IFNγ ELISPOT, donors expressing HLA A*2402 (supertype A24)",57 SFC
CC(C)C[C@H](NC(=O)[C@H](CCCNC(=N)N)NC(=O)[C@@H]1CCCN1C(=O)[C@@H](N)CC(N)=O)C(=O)N[C@@H](CS)C(=O)N[C@H](C(=O)N[C@@H](CCCNC(=N)N)C(=O)N[C@@H](CCC(=O)O)C(=O)N[C@@H](CCC(=O)O)C(=O)N[C@@H](Cc1ccccc1)C(=O)O)[C@@H](C)O,T cell response [SFC],[2],25 SFC
C[C@H](NC(=O)[C@@H](NC(=O)[C@H](CCC(N)=O)NC(=O)[C@@H](NC(=O)[C@H](Cc1c[nH]cn1)NC(=O)[C@H](Cc1ccc(O)cc1)NC(=O)CNC(=O)[C@@H]1CCCN1C(=O)[C@@H](N)CCCNC(=N)N)[C@@H](C)O)[C@@H](C)O)C(=O)O,T cell response [SFC],[5],177 SFC
CC(C)[C@H](NC(=O)[C@H](C)NC(=O)[C@H](C)NC(=O)[C@@H](N)CCCNC(=N)N)C(=O)N[C@@H](CCC(=O)O)C(=O)N[C@@H](CC(=O)O)C(=O)N[C@@H](CCC(=O)O)C(=O)N[C@@H](CCC(=O)O)C(=O)N[C@@H](Cc1ccccc1)C(=O)O,T cell response [SFC],[6],87 SFC
CSCC[C@H](NC(=O)[C@H](CCCCN)NC(=O)[C@H](CC(C)C)NC(=O)[C@@H](NC(=O)[C@@H](N)CCCNC(=N)N)C(C)C)C(=O)N[C@H](C(=O)N[C@@H](CCC(=O)O)C(=O)N1CCC[C@H]1C(=O)N[C@@H](Cc1c[nH]c2ccccc12)C(=O)O)C(C)C,T cell response [SFC],[6],643 SFC
CC(C)C[C@H](NC(=O)[C@H](CS)NC(=O)[C@H](CCCNC(=N)N)NC(=O)[C@H](CCCNC(=N)N)NC(=O)[C@@H]1CCCN1C(=O)[C@@H](N)CC(=O)O)C(=O)N[C@@H](CCCCN)C(=O)N1CCC[C@H]1C(=O)N[C@H](C(=O)O)C(C)C,T cell response [SFC],[5],115 SFC
CC[C@H](C)[C@H](NC(=O)[C@@H](NC(=O)[C@@H](NC(=O)[C@H](CC(N)=O)NC(=O)[C@H](Cc1c[nH]c2ccccc12)NC(=O)[C@H](Cc1ccccc1)NC(=O)[C@H](CCCCN)NC(=O)CNC(=O)[C@@H]1CCCN1C(=O)[C@@H](N)CO)[C@@H](C)O)[C@@H](C)O)C(=O)O,T cell response [SFC],[5],105 SFC
CC[C@H](C)[C@H](NC(=O)[C@H](Cc1ccc(O)cc1)NC(=O)CNC(=O)[C@H](CCCNC(=N)N)NC(=O)[C@H](C)NC(=O)[C@H](C)NC(=O)[C@@H](NC(=O)[C@H](CO)NC(=O)[C@H](C)NC(=O)[C@@H]1CCCN1)[C@@H](C)CC)C(=O)O,T cell response [SFC],[4],140 SFC
CC(C)C[C@H](NC(=O)[C@H](CCCNC(=N)N)NC(=O)[C@H](Cc1ccccc1)NC(=O)[C@H](CCC(=O)O)NC(=O)CN)C(=O)N[C@@H](CCCNC(=N)N)C(=O)NCC(=O)N[C@@H](CCC(=O)O)C(=O)N[C@@H](CCC(N)=O)C(=O)N[C@@H](CCCNC(=N)N)C(=O)O,T cell response [SFC],[7],273 SFC
CC[C@H](C)[C@H](NC(=O)[C@H](CC(C)C)NC(=O)[C@H](Cc1ccccc1)NC(=O)[C@H](CC(C)C)NC(=O)[C@H](CCSC)NC(=O)[C@H](C)NC(=O)CN)C(=O)N[C@@H](CO)C(=O)NCC(=O)N[C@@H](CCCCN)C(=O)O,T cell response [SFC],"ex vivo IFNγ ELISPOT, donors expressing HLA A*1101 (supertype A3)",212 SFC
C[C@@H](O)[C@H](N)C(=O)N1CCC[C@H]1C(=O)N1CCC[C@H]1C(=O)NCC(=O)N[C@@H](CO)C(=O)N[C@@H](CCCNC(=N)N)C(=O)N[C@@H](CC(=O)O)C(=O)N1CCC[C@H]1C(=O)N[C@@H](Cc1ccccc1)C(=O)O,T cell response [SFC],[1],210 SFC
CSCC[C@H](N)C(=O)N[C@H](C(=O)N[C@@H](CCC(N)=O)C(=O)N[C@@H](CCCCN)C(=O)N[C@@H](C)C(=O)N[C@@H](CCCNC(=N)N)C(=O)N[C@@H](CC(N)=O)C(=O)N[C@@H](C)C(=O)N[C@@H](CC(C)C)C(=O)O)[C@@H](C)O [MTQKARNAL],T cell response [SFC],[5],263 SFC
CC(C)C[C@H](NC(=O)[C@H](C)NC(=O)[C@H](CCC(=O)O)NC(=O)[C@H](Cc1ccccc1)NC(=O)[C@H](CCC(=O)O)NC(=O)[C@H](CC(C)C)NC(=O)[C@H](Cc1ccc(O)cc1)NC(=O)[C@@H](N)CCCNC(=N)N)C(=O)NCC(=O)N[C@@H](Cc1ccccc1)C(=O)O,T cell response [SFC],"ex vivo IFNγ ELISPOT, donors expressing A*2402",130 SFC
CC[C@H](C)[C@H](N)C(=O)N[C@@H](C)C(=O)N[C@@H](CC(N)=O)C(=O)N[C@@H](CCC(N)=O)C(=O)N[C@@H](C)C(=O)N[C@H](C(=O)N[C@H](C(=O)N[C@@H](CC(C)C)C(=O)N[C@@H](CCSC)C(=O)O)C(C)C)[C@@H](C)O,T cell response [SFC],[1],220 SFC
CC[C@H](C)[C@H](NC(=O)[C@H](C)NC(=O)[C@H](Cc1ccc(O)cc1)NC(=O)[C@H](Cc1c[nH]cn1)NC(=O)[C@@H](NC(=O)[C@@H](NC(=O)[C@H](CC(C)C)NC(=O)[C@H](CC(C)C)NC(=O)[C@H](CC(C)C)NC(=O)[C@@H](N)C(C)C)C(C)C)[C@@H](C)O)C(=O)O,T cell response [SFC],[3],260 SFC
CSCC[C@H](N)C(=O)N[C@H](C(=O)N[C@@H](CO)C(=O)N[C@@H](CCCNC(=N)N)C(=O)N[C@@H](CC(C)C)C(=O)N[C@@H](CC(C)C)C(=O)N[C@@H](CC(C)C)C(=O)N[C@@H](CC(N)=O)C(=O)N[C@@H](CCCNC(=N)N)C(=O)O)C(C)C,T cell response [SFC],"ex vivo IFNγ ELISPOT, donors expressing A*1101",992 SFC
CC[C@H](C)[C@H](NC(=O)[C@H](C)NC(=O)CNC(=O)[C@@H](N)Cc1ccccc1)C(=O)N[C@@H](Cc1ccc(O)cc1)C(=O)NCC(=O)N[C@@H](C)C(=O)N[C@@H](C)C(=O)N[C@@H](Cc1ccccc1)C(=O)O,T cell response [SFC],[1],28 SFC
CC[C@H](C)[C@H](N)C(=O)N[C@H](C(=O)N[C@@H](CC(C)C)C(=O)N[C@@H](CC(C)C)C(=O)N[C@@H](CS)C(=O)N[C@@H](CC(C)C)C(=O)N[C@H](C(=O)N1CCC[C@H]1C(=O)N[C@H](C(=O)N[C@H](C(=O)O)C(C)C)[C@@H](C)O)[C@@H](C)CC)[C@@H](C)O,T cell response [SFC],[3],43 SFC
CC[C@H](C)[C@H](NC(=O)CNC(=O)[C@@H](NC(=O)[C@@H](NC(=O)[C@H](C)NC(=O)[C@H](CCSC)NC(=O)[C@@H](N)CCSC)[C@@H](C)O)[C@@H](C)CC)C(=O)N[C@@H](C)C(=O)N[C@@H](CC(C)C)C(=O)O [MMATIGIAL],T cell response [SFC],[1],38 SFC
CSCC[C@H](NC(=O)[C@H](C)NC(=O)CNC(=O)[C@H](CCC(=O)O)NC(=O)[C@@H](N)CCC(N)=O)C(=O)N[C@@H](Cc1c[nH]cn1)C(=O)N[C@H](C(=O)N[C@@H](C)C(=O)N[C@@H](CC(C)C)C(=O)O)[C@@H](C)O [QEGAMHTAL],T cell response [SFC],[7],120 SFC
CC(C)C[C@H](NC(=O)[C@H](CC(C)C)NC(=O)[C@@H](NC(=O)[C@H](C)NC(=O)[C@H](C)NC(=O)[C@@H](NC(=O)[C@H](CC(C)C)NC(=O)[C@@H](N)[C@@H](C)O)[C@@H](C)O)C(C)C)C(=O)N[C@@H](CC(C)C)C(=O)N[C@H](C(=O)O)C(C)C,T cell response [SFC],[3],43 SFC
CC(C)C[C@H](NC(=O)CNC(=O)[C@H](CCC(=O)O)NC(=O)CN)C(=O)N[C@@H](Cc1c[nH]cn1)C(=O)N[C@@H](CCCCN)C(=O)N[C@@H](CC(C)C)C(=O)NCC(=O)N[C@@H](Cc1ccc(O)cc1)C(=O)O,T cell response [SFC],"ex vivo IFNγ ELISPOT, donors expressing B*4403",248 SFC
C[C@H](NC(=O)[C@H](Cc1c[nH]c2ccccc12)NC(=O)[C@@H](NC(=O)[C@H](CCCNC(=N)N)NC(=O)[C@H](Cc1ccc(O)cc1)NC(=O)[C@@H]1CCCN1C(=O)[C@H](CC(N)=O)NC(=O)[C@H](CCC(=O)O)NC(=O)[C@@H](N)CCC(N)=O)[C@@H](C)O)C(=O)N[C@@H](Cc1ccc(O)cc1)C(=O)O,T cell response [SFC],"ex vivo IFNγ ELISPOT, donors expressing B*4001",992 SFC
TPFGIIPAL,T cell response [SFC],"per epitope, ex vivo IFNγ SFC/10^6 PBMC",183 SFC
CC[C@H](C)[C@H](NC(=O)[C@H](CO)NC(=O)[C@@H](NC(=O)[C@H](CCSC)NC(=O)CNC(=O)[C@@H](NC(=O)[C@H](C)NC(=O)[C@@H](N)CCSC)C(C)C)C(C)C)C(=O)N[C@@H](CC(C)C)C(=O)O,T cell response [SFC],[1],172 SFC
CC[C@H](C)[C@H](NC(=O)[C@@H](NC(=O)[C@H](CO)NC(=O)[C@H](Cc1ccc(O)cc1)NC(=O)[C@H](CCCCN)NC(=O)[C@H](CC(C)C)NC(=O)[C@H](CC(N)=O)NC(=O)[C@H](CCC(=O)O)NC(=O)[C@@H](N)Cc1ccc(O)cc1)C(C)C)C(=O)O,T cell response [SFC],"ex vivo IFNγ ELISPOT, donors expressing HLA B*4402 (supertype B44)",37 SFC
